Test: Biacore binding characteristics of labeled versus non-labeled Herceptin

binding characteristics compared to non-labeled Herceptin (Biacore): same binding characteristics
Substance: Cy5-labeled Herceptin: Herceptin labeled with Cy5
